Laboratory results: patent US20130131088A1 (UNIVERSITY HEALTH NETWORK, priority 2010, published 2013)

Tested on: normal cells (PBSC1)
Details: combination of dipyridamole and statins at the highest concentrations assessed for the primary AML patient samples

OCCN(CCO)c1nc(N2CCCCC2)c2nc(N(CCO)CCO)nc(N3CCCCC3)c2n1 [dipyridamole]
toxicity to normal cells: not toxic
